{"source": "patent US20050049197A1", "about": "“Induction of immune response against desired determinants” (Epimmune Inc., priority 1993, published 2005)", "test_system": "DR3", "conditions": "read-out: Binding Activity DR3, IC50"}
{"smiles": "CC(C)C[C@H](NC(=O)[C@@H](NC(=O)[C@H](C)NC(=O)[C@H](C)NC(=O)[C@H](C)NC(=O)[C@@H](NC(=O)[C@H](CC1CCCCC1)NC(=O)[C@H](CCCCN)NC(=O)[C@@H](C)N)C(C)C)[C@@H](C)O)C(=O)N[C@@H](CCCCN)C(=O)N[C@@H](C)C(=O)N[C@@H](C)C(=O)N[C@H](C)C(N)=O", "note": "[965.16]", "values": [{"measurement": "IC50", "value": 1470, "unit": "nM"}]}
